In the test the test system is human PCSK9. The experiment in a line: PCSK9 AlphaLISA assay, PCSK9 lowering in WT7 cells. Particulars: WT7 cells (Huh7 stably over-expressing human PCSK9); secreted PCSK9 by AlphaLISA; overnight incubation (16-24 h); top concentration 20 μM; read-out: Cell Based PCSK9 IC50. The text has this:
An in-vitro AlphaLISA assay (Perkin Elmer) was developed in order to quantitate the level of PCSK9 secreted into the cell culture media following compound treatment. To detect and measure PCSK9 protein an in-house generated anti-PCSK9 antibody was coupled to AlphaLISA acceptor beads by an external vendor (PerkinElmer) and a second internally developed anti-PCSK9 antibody with an epiptope distinct from that of the acceptor beads was biotinylated in house. Streptavidin coated-donor beads (Perkin Elmer) are also included in the assay mixture which then binds the biotinylated anti-PCSK9 antibody and in the presence of PCSK9 this donor complex and acceptor beads are brought into close proximity. […] The ability of compound to modulate PCSK9 protein levels in conditioned media by AlphaLISA was assessed in the human hepatocellular carcinoma cell line Huh7, stably over-expressing human PCSK9. […] Following plasmid transfection the stable WT7 clone was identified and maintained under Zeocin selection. Compound screening was performed in 384-well plates where WT7 cells were plated at a density of 7500 cells per well in 20 μL of tissue culture media containing compound in an eleven point, 0.5 log dilution format at a high treatment concentration of 20 μM in a final volume of 0.5% DMSO. In additional to these test compound conditions each screening plate also included wells that contained 20 μM puromycin as a positive assay control defined as high percent effect, HPE, as well as wells containing media in 0.5% DMSO as a negative treatment control defined as zero percent effect, ZPE. After overnight compound incubation (16-24 h) the tissue culture media was collected and an aliquot from each sample was transferred to individual wells of a 384-well white Optiplate (Perkin Elmer). The coupled antibodies and donor beads were added to the assay plates in a buffer composed of 30 mM Tris pH 7.4, 0.02% Tween-20 and 0.02% Casein. Anti-PCSK9 acceptor beads (final concentration of 10 μg/mL) and anti-PCSK9 biotinylated antibody (final concentration of 3 nM) were added and incubated for 30 minutes at room temperature followed by the addition of the streptavidin donor beads (final concentration 40 μg/mL) for an additional 60 minutes. Additionally a standard curve was generated where AlphaLISA reagents were incubated in wells spiked with recombinant human PCSK9 diluted in tissue culture media from 5000 ng/mL to 0.6 ng/mL. […] The test compound data were converted into percent effect, using the ZPE and HPE controls as 0% and 100% activity, respectively. The equation used for converting each well reading into percent effect was:
[formula] IC50 was then calculated and reported as the midpoint in the percent effect curve in molar units and the values are reported under the Cell Based PCSK9 IC50 (μM) column header within Table 1 Biological Data. Additionally, to monitor the selectivity of compound response for PCSK9 the level of a second secreted protein, Transferrin, was measured from the same conditioned media treated with test compound by AlphaLISA. […] To detect and quantify effects on Transferrin 0.01 mL of the culture media was transferred to a 384-well white Optiplate and 0.01 mL of media was added to bring the volume to 0.02 ml. Anti-Transferrin acceptor beads were added to a final concentration of 10 μg/mL, biotinylated anti-Transferrin at 3 nM and streptavidin donor beads at 40 μg/mL. Percent effect and IC50 for Transferrin was computed in a similar manner as that described for PCSK9.
On the technique in general: In Alpha technology, singlet oxygen from a donor bead excites a nearby acceptor bead.
A word on the IC50: it is the concentration at which inhibition is half-maximal. As to `Cc1cccnc1N(C(=O)c1ccc(-c2cnn(C)c2-c2nnn(C(C)OC(=O)OC(C)C)n2)cc1)[C@@H]1CCCNC1` (single isomer, unassigned) [Example 38], the concentration for half-maximal inhibition (IC50) was over 19400 nM.
In the case of `Cc1cnc2c(c1)nnn2-c1ccc(C(=O)N(c2ncccc2Cl)[C@@H]2CCCNC2)cc1` [Example 3, N-(3-chloropyridin-2-yl)-4-(6-methyl-3H-[1,2,3]triazolo[4,5-b]pyridin-3-yl)-N-[(3R)-piperidin-3-yl]benzamide] it was 800 nM.
Turning to `O=C(c1ccc(-n2nnc3cccnc32)cn1)N(c1ncccc1Cl)[C@@H]1CCCNC1` [Example 5, N-(3-chloropyridin-2-yl)-N-[(3R)-piperidin-3-yl]-5-(3H-[1,2,3]triazolo[4,5-b]pyridin-3-yl)pyridine-2-carboxamide], the IC50 was determined as 1500 nM.
For `CCOC(=O)c1c(-c2ccc(C(=O)N(c3ncccc3Cl)[C@@H]3CCCNC3)cc2)cnn1C` [Example 6, ethyl 4-(4-{(3-chloropyridin-2-yl)[(3R)-piperidin-3-yl]carbamoyl}phenyl)-1-methyl-1H-pyrazole-5-carboxylate], the IC50 was 1500 nM.
The same measure for `Cc1cnc2c(c1)nnn2-c1ccc(C(=O)N(c2ncccc2Cl)[C@@H]2CCCNC2)nc1` [Example 9, N-(3-chloropyridin-2-yl)-5-(6-methyl-3H-[1,2,3]triazolo[4,5-b]pyridin-3-yl)-N-[(3R)-piperidin-3-yl]pyridine-2-carboxamide]: 1800 nM.
In the case of `CCOC(=O)OC(C)OC(=O)c1c(-c2ccc(C(=O)N(c3nccc4ccccc34)[C@@H]3CCCNC3)cc2)cnn1C` (stereo partly drawn) [Example 11, 1-[(ethoxycarbonyl)oxy]ethyl 4-(4-{isoquinolin-1-yl[(3R)-piperidin-3-yl]carbamoyl}phenyl)-1-methyl-1H-pyrazole-5-carboxylate], the IC50 stood at 11700 nM.
The same measure for `O=C(c1ccc(-n2nnc3cccnc32)cc1)N(c1ncccc1Cl)[C@@H]1CCCNC1` [Example 16, N-(3-chloropyridin-2-yl)-N-[(3R)-piperidin-3-yl]-4-(3H-[1,2,3]triazolo[4,5-b]pyridin-3-yl)benzamide]: 800 nM.
